Test results from IntAct's records for PubMed 20856200.

B1: RAC-alpha serine/threonine-protein kinase (Homo sapiens), P31749 (parent)
chain: MSDVAIVKEGWLHKRGEYIKTWRPRYFLLKNDGTFIGYKERPQDVDQREAPLNNFSVAQCQLMKTERPRPNTFIIRCLQWTTVIERTFHVETPEEREEWTTAIQTVADGLKKQEEEEMDFRSGSPSDNSGAEEMEVSLAKPKHRVTMNEFEYLKLLGKGTFGKVILVKEKATGRYYAMKILKKEVIVAKDEVAHTLTENRVLQNSRHPFLTALKYSFQTHDRLCFVMEYANGGELFFHLSRERVFSEDRARFYGAEIVSALDYLHSEKNVVYRDLKLENLMLDKDGHIKITDFGLCKEGIKDGATMKTFCGTPEYLAPEVLEDNDYGRAVDWWGLGVVMYEMMCGRLPFYNQDHEKLFELILMEEIRFPRTLGPEAKSLLSGLLKKDPKQRLGGGSEDAKEIMQHRFFAGIVWQHVYEKKLSPPFKPQVTSETDTRYFDEEFTAQMITITPPDQDDSMECVDSERRPHFPQFSYSASGTA

Variants of: B1
Settings: with vime_human VIM
MSDVAIVKEGWLHKRGEYIKTWRPRYFLLKNDGTFIGYKERPQDVDQREAPLNNFSVAQCQLMKTERPRPNTFIIRCLQWTTVIERTFHVETPEEREEWTTAIQTVADGLKKQEEEEMDFRSGSPSDNSGAEEMEVSLAKPKHRVTMNEFEYLKLLGKGTFGKVILVKEKATGRYYAMAILKKEVIVAKDEVAHTLTENRVLQNSRHPFLTALKYSFQTHDRLCFVMEYANGGELFFHLSRERVFSEDRARFYGAEIVSALDYLHSEKNVVYRDLKLENLMLDKDGHIKITDFGLCKEGIKDGATMKAFCGTPEYLAPEVLEDNDYGRAVDWWGLGVVMYEMMCGRLPFYNQDHEKLFELILMEEIRFPRTLGPEAKSLLSGLLKKDPKQRLGGGSEDAKEIMQHRFFAGIVWQHVYEKKLSPPFKPQVTSETDTRYFDEEFTAQMITITPPDQDDSMECVDSERRPHFPQFAYSASGTA [K179A;T308A;S473A] was tested, and the “effect of a mutation on the interaction” value was “decreasing interaction”.
